Assay results taken from PubChem BioAssay AID624296 (National Center for Advancing Translational Sciences (NCATS), 2012).
This is a selection; strong and weak results do not stand in their true shares. Records with an inconclusive call do not appear. Active and inactive are the calls of the source. Calls follow the shape of the dose curve; as a rule, active = well fitted activation curve with a large enough effect; inconclusive = small, poorly fitted or top-dose-only effect; inactive = no such curve, though single readings can be large or run the other way.

Experiment: A quantitative high throughput screen for small molecules that induce DNA re-replication in MCF 10a normal breast cells. Also: % of control where 0% means no effect; nearly all actives have a fitted effect of over 50% in size.
Details: MCF 10A DNA re-replication, Hoechst nuclear intensity, 48 h; at 46.1 µM (top of the series)

Compound | activity, positive = re-replication
O=C(OCCCN1CCCC1)C(O)(c1ccccc1)C1CCCCC1 (stereo unspecified) | inactive: -9.15%
